Assay results published in article PMC4140853 (PLoS Pathogens, 2014).

Columns and labels:
[1] = target: T1, preformed EBV gHgL/gp42 complex (wild-type gp42) (Epstein-Barr virus, UniProt P03231;P03212;P03205); experiment: BLI; conditions: both partners purified
T1 construct: also called gHgL/gp42 wt; gHgL/gp42 complexes; source: purified gHgL (SF+ cells) and gp42 (High Five cells) mixed, complex isolated by gel filtration chromatography; copies: + +

[2] = target: T2, EBV gp42 wild type, soluble (residues 33-223) (Epstein-Barr virus, UniProt P03205 33-223); experiment: BLI; conditions: both partners purified
T2 construct: also called gp42 w.t; wt gp42; source: High Five insect cells (baculovirus), secreted, purified (Talon or Ni-NTA, Superdex 200)
T2 sequence: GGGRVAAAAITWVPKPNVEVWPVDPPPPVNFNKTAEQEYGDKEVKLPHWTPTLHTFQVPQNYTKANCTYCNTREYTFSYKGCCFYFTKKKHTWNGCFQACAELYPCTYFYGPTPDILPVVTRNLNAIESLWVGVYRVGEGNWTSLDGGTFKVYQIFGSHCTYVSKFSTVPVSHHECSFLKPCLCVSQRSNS

B1: HLA-DQ2 (A1*0501/B1*0201) with the CLIP1 peptide covalently linked to the beta chain, soluble, Fos-Jun leucine zipper (peptide-MHC)
chain 1: EDIVADHVASYGVNLYQSYGPSGQYTHEFDGDEQFYVDLGRKETVWCLPVLRQFRFDPQFALTNIAVLKHNLNSLIKRSNSTAATNEVPEVTVFSKSPVTLGQPNILICLVDNIFPPVVNITWLSNGHSVTEGVSETSFLSKSDHSFFKISYLTLLPSAEESYDCKVEHWGLDKPLLKHWEPEIPAPMSELTE
chain 2: RDSPEDFVYQFKGMCYFTNGTERVRLVSRSIYNREEIVRFDSDVGEFRAVTLLGLPAAEYWNSQKDILERKRAAVDRVCRHNYQLELRTTLQRRVEPTVTISPSRTEALNHHNLLVCSVTDFYPAQIKVRWFRNDQEETAGVVSTPLIRNGDWTFQILVMLEMTPQRGDVYTCHVEHPSLQSPITVEWRAQSESAQSK
chain 3: PVSKMRMATPLLMQA
modifications: biotin on the C-terminal BirA site (enzymatic, for the BLI experiments)
B1 showed a Kd [1] of 120 nM and a Kd [2] of 53 nM.
